Measured values published in article PMC13450841 (PLOS Pathogens, 2026).

Tested on: P. aeruginosa strain PA48386
Details: 16-point scale

In the case of O=C([O-])CC(O)(CC(=O)[O-])C(=O)[O-].O=C([O-])CC(O)(CC(=O)[O-])C(=O)[O-].[Bi+3].[K+].[K+].[K+] [Bis, bismuth subcitrate], the “Clinical score: median at 48h” value is reported as 10.75, the “Clinical score: mean ±SD at 24h” value (Bis 50 µM, Zp 20 µM, Pol 1 µM topical at 30 min, 4 h, 24 h, no treatment 5.65 ± 2.83) is reported as 4.99 ± 3.60 and the “Clinical score: mean SD at 48h” value (no treatment 10.53 ± 4.40) is reported as 9.05 ± 5.27. The “Clinical score: median at 24h” value (same cohort) was 5.50.
